Tests used:
[1] = Loss of asthma control (LOAC) events, 12-week ICS/LABA withdrawal study; type: in vivo, human
[2] = Asthma Quality of Life Questionnaire with Standardized Activities (AQLQ(S)); type: in vivo, human; settings: for AQLQ global score change from baseline at Week 12, Mean / AQLQ global score change from baseline at Week 12, LS Mean: mITT; for AQLQ and AQLQ(S) effect (in words): both cohorts
[3] = 400 mg BID, all others than low EOS and low FeNO
[4] = 400 mg BID, baseline FeNO ≥35 ppb
[5] = 400 mg BID, baseline blood eosinophil level 2 <0.3 10^9/L
[6] = 400 mg TID, 2 asthma exacerbations within 2 years
[7] = 400 mg TID, baseline BMI ≥25-<30 kg/m^2
[8] = 400 mg TID, baseline weight ≥90 kg
[9] = 400 mg TID, low EOS (<0.15) and low FeNO (<25)

For `CC(C)(C=C(C#N)C(=O)N1CCC[C@@H](n2nc(-c3ccc(Oc4ccccc4)cc3F)c3c(N)ncnc32)C1)N1CCN(C2COC2)CC1` (mixture of isomers) [rilzabrutinib, (R)-2-[3-[4-amino-3-(2-fluoro-4-phenoxy-phenyl)pyrazolo[3,4-d]pyrimidin-1-yl]piperidine-1-carbonyl]-4-methyl-4-[4-(oxetan-3-yl)piperazin-1-yl]pent-2-enenitrile], the “incidence of LOAC events in subgroups” value ([1]; 400 mg BID or 400 mg TID, regardless of baseline demographic and disease characteristics, ICS/LABA dose, biomarkers, eosinophils, FeNO) was “numerical improvement in the incidence of LOAC events”, the “LOAC, incidence (in parentheses)” value ([1]; 400 mg BID, age at onset ≥40 years) was “(75.0)” and the “LOAC, incidence (in parentheses)” value ([1]; 400 mg BID, baseline FeNO level 1 ≥25 ppb) was “(45.0)”. For the same molecule, the “LOAC, incidence (in parentheses)” value ([1]; 400 mg BID, smoking history Former) was “(75.0)”, the “LOAC, incidence (in parentheses)” value ([1]; 400 mg TID, FEV1 reversibility ≥12 %) was “(7.7)” and the “AQLQ global score change from baseline at Week 12, Mean” value ([2]; 400 mg BID, age <45 years) was 0.62. The “AQLQ global score change from baseline at Week 12, Mean” value ([2]; 400 mg BID, age at asthma onset <12 years) was 0.89, the “AQLQ global score change from baseline at Week 12, LS Mean” value (“AQLQ global score change … LS Mean” below) ([2]; 400 mg BID, age at asthma onset ≥18-<40 years) was 0.77 and the “AQLQ global score change … LS Mean” value ([2]; 400 mg BID, age at asthma onset ≥40 years) was 0.23. For the same molecule, the “AQLQ global score change … LS Mean” value ([2]; 400 mg BID, age ≥45 years) was 0.89, the “AQLQ global score change … LS Mean” value [2, 3] was 0.77 (0.22) and the “AQLQ global score change from baseline at Week 12, Mean” value [2, 3] was 0.85 (0.99). For the same molecule, the “AQLQ global score change … LS Mean” value ([2]; 400 mg BID, baseline BMI <25 kg/m^2) was 0.55, the “AQLQ global score change … LS Mean” value ([2]; 400 mg BID, baseline BMI ≥30 kg/m^2) was 1.30 and the “AQLQ global score change … LS Mean” value ([2]; 400 mg BID, baseline FeNO <35 ppb) was 0.85 (0.23). For the same molecule, the “AQLQ global score change from baseline at Week 12, Mean” value ([2]; 400 mg BID, baseline FeNO ≥25 ppb) was 0.78 (1.05), the “AQLQ global score change … LS Mean” value [2, 4] was 0.85 (0.40) and the “AQLQ global score change from baseline at Week 12, Mean” value [2, 4] was 1.09 (1.01). The “AQLQ global score change from baseline at Week 12, Mean” value ([2]; 400 mg BID, baseline IgE <median 210.8 IU/mL) was 0.73 (0.89), the “AQLQ global score change from baseline at Week 12, Mean” value ([2]; 400 mg BID, baseline IgE ≥100 IU/mL) was 0.78 (0.94) and the “AQLQ global score change from baseline at Week 12, Mean” value ([2]; 400 mg BID, baseline blood eosinophil level 1 <0.15 10^9/L) was 0.82 (1.24). The “AQLQ global score change from baseline at Week 12, Mean” value ([2]; 400 mg BID, baseline blood eosinophil level 1 ≥0.15 10^9/L) was 0.85 (0.91), the “AQLQ global score change … LS Mean” value [2, 5] was 0.89 (0.29) and the “AQLQ global score change from baseline at Week 12, Mean” value [2, 5] was 0.90 (1.18). For the same molecule, the “AQLQ global score change from baseline at Week 12, Mean” value ([2]; 400 mg BID, baseline blood eosinophil level 2 ≥0.3 10^9/L) was 0.77 (0.73), the “AQLQ global score change from baseline at Week 12, Mean” value ([2]; 400 mg BID, baseline pre-bronchodilator FEV1 <2.022 L) was 0.89 and the “AQLQ global score change … LS Mean” value ([2]; 400 mg BID, baseline weight <60 kg) was 0.82. The “AQLQ global score change … LS Mean” value ([2]; 400 mg BID, baseline weight ≥60-<90 kg) was 0.77, the “AQLQ global score change from baseline at Week 12, Mean” value ([2]; 400 mg BID, former smokers) was 0.73 and the “AQLQ global score change from baseline at Week 12, Mean” value ([2]; 400 mg BID, low EOS (<0.15) and low FeNO (<25)) was 0.71 (1.25). For the same molecule, the “AQLQ global score change … LS Mean” value ([2]; 400 mg BID, male) was 0.73, the “AQLQ global score change … LS Mean” value [2, 6] was 0.41 and the “AQLQ global score change from baseline at Week 12, Mean” value [2, 6] was 0.34. For the same molecule, the “AQLQ global score change from baseline at Week 12, Mean” value ([2]; 400 mg TID, Western Countries) was 0.78 (0.75), the “AQLQ global score change … LS Mean” value ([2]; 400 mg TID, age at asthma onset <18 years) was 0.45 and the “AQLQ global score change from baseline at Week 12, Mean” value ([2]; 400 mg TID, age at asthma onset ≥18-<40 years) was 0.34. The “AQLQ global score change from baseline at Week 12, Mean” value ([2]; 400 mg TID, age ≥45 years) was 0.41 (1.01), the “AQLQ global score change from baseline at Week 12, Mean” value ([2]; 400 mg TID, background ICS dose medium) was 0.41 and the “AQLQ global score change … LS Mean” value [2, 7] was 0.96 (0.16). For the same molecule, the “AQLQ global score change from baseline at Week 12, Mean” value [2, 7] was 0.75 (0.71), the “AQLQ global score change from baseline at Week 12, Mean” value ([2]; 400 mg TID, baseline FEV1 reversibility <12%) was 0.42 and the “AQLQ global score change … LS Mean” value ([2]; 400 mg TID, baseline FEV1 reversibility ≥12%) was 0.63. For the same molecule, the “AQLQ global score change from baseline at Week 12, Mean” value ([2]; 400 mg TID, baseline FeNO <35 ppb) was 0.41 (0.84), the “AQLQ global score change … LS Mean” value ([2]; 400 mg TID, baseline IgA <median 2190 mg/L) was 0.77 (0.17) and the “AQLQ global score change … LS Mean” value ([2]; 400 mg TID, baseline IgA ≥median 2190 mg/L) was 0.41 (0.18). The “AQLQ global score change from baseline at Week 12, Mean” value ([2]; 400 mg TID, baseline IgE <100 IU/mL) was 0.55 (0.59), the “AQLQ global score change from baseline at Week 12, Mean” value ([2]; 400 mg TID, baseline IgE ≥100 IU/mL) was 0.42 (0.98) and the “AQLQ global score change from baseline at Week 12, Mean” value ([2]; 400 mg TID, baseline IgE ≥median 121.85 IU/mL) was 0.31 (1.03). The “AQLQ global score change from baseline at Week 12, Mean” value ([2]; 400 mg TID, baseline blood eosinophil level 1 <0.15 10^9/L) was 0.41 (0.58), the “AQLQ global score change … LS Mean” value ([2]; 400 mg TID, baseline blood eosinophil level 1 ≥0.15-<0.3 10^9/L) was 0.39 (0.29) and the “AQLQ global score change … LS Mean” value ([2]; 400 mg TID, baseline blood eosinophil level 1 ≥0.3 10^9/L) was 0.72 (0.28). The “AQLQ global score change from baseline at Week 12, Mean” value ([2]; 400 mg TID, baseline blood eosinophil level 2 <0.3 10^9/L) was 0.42 (0.73), the “AQLQ global score change … LS Mean” value ([2]; 400 mg TID, baseline blood eosinophil level 2 ≥0.3 10^9/L) was 0.72 (0.28) and the “AQLQ global score change … LS Mean” value ([2]; 400 mg TID, baseline percent predicted FEV1 <77%) was 0.55. For the same molecule, the “AQLQ global score change from baseline at Week 12, Mean” value ([2]; 400 mg TID, baseline percent predicted FEV1 <80%) was 0.41, the “AQLQ global score change from baseline at Week 12, Mean” value ([2]; 400 mg TID, baseline weight <60 kg) was 0.78 (0.40) and the “AQLQ global score change … LS Mean” value [2, 8] was 0.32 (0.18). The “AQLQ global score change from baseline at Week 12, Mean” value [2, 8] was 0.26 (0.89), the “AQLQ global score change … LS Mean” value ([2]; 400 mg TID, former smokers) was −0.11 and the “AQLQ global score change from baseline at Week 12, Mean” value ([2]; 400 mg TID, former smokers) was −0.55. For the same molecule, the “AQLQ global score change … LS Mean” value [2, 9] was 0.55 (0.19), the “AQLQ global score change from baseline at Week 12, Mean” value [2, 9] was 0.41 (0.64) and the “AQLQ global score change … LS Mean” value ([2]; 400 mg TID, male) was 0.41 (0.18). The “AQLQ global score change from baseline at Week 12, Mean” value ([2]; 400 mg TID, never smokers) was 0.55, the “AQLQ and AQLQ(S) effect (in words)” value [2] was “improvement in quality of life as measured by AQLQ” and the “AQLQ and AQLQ(S) effect (in words)” value ([2]; listed as Rilzabrutinib) was “significant improvements in AQLQ and AQLQ(S)”.

Source: patent US20260345619A1 (Principia Biopharma Inc., priority 2023, published 2026)
